# In publication PMC9636434, “Discovery of small molecule agonists of the Relaxin Family Peptide Receptor 2” (Communications Biology, 2022):
# The chains behind the UniProt entries cited, without tags or fusion partners. Residues count along the entry.
# UniProt P22888, 27-699: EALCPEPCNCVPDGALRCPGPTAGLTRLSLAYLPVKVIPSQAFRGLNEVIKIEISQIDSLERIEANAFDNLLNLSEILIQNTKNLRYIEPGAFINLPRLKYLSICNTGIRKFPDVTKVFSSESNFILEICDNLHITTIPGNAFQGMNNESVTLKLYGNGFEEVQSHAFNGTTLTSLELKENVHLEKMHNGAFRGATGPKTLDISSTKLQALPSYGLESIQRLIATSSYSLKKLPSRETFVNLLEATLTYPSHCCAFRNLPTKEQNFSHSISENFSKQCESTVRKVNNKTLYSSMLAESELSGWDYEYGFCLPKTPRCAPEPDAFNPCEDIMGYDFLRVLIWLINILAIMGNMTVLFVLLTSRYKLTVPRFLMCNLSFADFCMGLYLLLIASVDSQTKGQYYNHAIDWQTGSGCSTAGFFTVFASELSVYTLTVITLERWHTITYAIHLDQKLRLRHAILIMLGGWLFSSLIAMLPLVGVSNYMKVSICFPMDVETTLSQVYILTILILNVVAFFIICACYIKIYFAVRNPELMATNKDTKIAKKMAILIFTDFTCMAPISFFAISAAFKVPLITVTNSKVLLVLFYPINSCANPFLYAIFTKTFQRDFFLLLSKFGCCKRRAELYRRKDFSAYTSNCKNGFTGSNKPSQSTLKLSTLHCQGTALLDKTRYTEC
# UniProt P30542, whole entry: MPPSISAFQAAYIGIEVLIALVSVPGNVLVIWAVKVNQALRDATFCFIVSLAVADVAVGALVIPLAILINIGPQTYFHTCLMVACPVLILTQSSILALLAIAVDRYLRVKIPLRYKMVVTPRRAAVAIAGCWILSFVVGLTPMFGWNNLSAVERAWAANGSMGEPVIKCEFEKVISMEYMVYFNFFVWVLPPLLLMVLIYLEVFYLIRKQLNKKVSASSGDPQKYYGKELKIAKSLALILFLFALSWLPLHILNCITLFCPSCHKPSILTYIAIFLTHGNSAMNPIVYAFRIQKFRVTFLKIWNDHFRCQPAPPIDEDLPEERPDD
# Several values for one entry are separate records, joined by “and”; a condition that tells them apart may be missing. Identical values can stand only once.
# What was measured:
# Assay type in all cases: cell-based
# human LHCGR = human LHCGR (Homo sapiens, UniProt P22888); assay: HitHunter cAMP XS+ assay, cAMP Hunter cell line LHCGR; conditions: replicates (1),(2)
# Source text: (§1) Results are reported as raw RLU values and represent the
# (§2) mean ± SEM of 2 technical replicates.
# human ADORA1 [1] = target: T1, human ADORA1 (Homo sapiens, UniProt P30542); assay: PRESTO-Tango β-arrestin recruitment, ADORA1 transfected HTLA cells; conditions: replicates (1)-(4)
# human ADORA1 [2] = target: T1, human ADORA1; assay: GloSensor cAMP inhibition assay in ADORA1 transiently transfected HEK293T cells; conditions: replicates (1)-(4)
# human FSHR = target: T2, human FSHR (Homo sapiens, UniProt P23945); assay: HitHunter cAMP XS+ assay, cAMP Hunter cell line FSHR; conditions: replicates (1),(2)
# T2 sequence (P23945 18-695): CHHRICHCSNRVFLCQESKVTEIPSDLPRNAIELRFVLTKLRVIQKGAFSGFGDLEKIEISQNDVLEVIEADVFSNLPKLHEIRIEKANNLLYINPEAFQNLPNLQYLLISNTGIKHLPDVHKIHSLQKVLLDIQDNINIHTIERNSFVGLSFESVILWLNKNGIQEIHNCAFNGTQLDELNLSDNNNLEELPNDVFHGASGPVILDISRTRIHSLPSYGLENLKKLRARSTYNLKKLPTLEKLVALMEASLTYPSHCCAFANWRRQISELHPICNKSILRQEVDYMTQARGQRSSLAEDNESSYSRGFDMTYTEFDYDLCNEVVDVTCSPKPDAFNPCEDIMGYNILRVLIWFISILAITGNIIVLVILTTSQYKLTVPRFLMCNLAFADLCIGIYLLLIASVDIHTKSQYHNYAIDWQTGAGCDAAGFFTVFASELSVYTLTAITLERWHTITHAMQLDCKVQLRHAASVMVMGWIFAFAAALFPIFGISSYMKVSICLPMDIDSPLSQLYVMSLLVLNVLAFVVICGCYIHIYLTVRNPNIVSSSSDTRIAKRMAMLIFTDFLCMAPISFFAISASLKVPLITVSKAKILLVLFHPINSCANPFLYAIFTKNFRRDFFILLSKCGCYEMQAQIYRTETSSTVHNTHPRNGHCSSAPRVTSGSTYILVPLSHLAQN
# Source text: as §1, §2
# human TSHR = human TSHR (Homo sapiens, UniProt P16473); assay: HitHunter cAMP XS+ assay, cAMP Hunter cell line TSHR; conditions: replicates (1),(2)
# Source text: as §1, §2
# human PTHR1 = target: T3, human PTHR1 (Homo sapiens, UniProt Q03431); assay: HitHunter cAMP XS+ assay, cAMP Hunter cell line PTHR1; conditions: replicates (1),(2)
# T3 sequence (Q03431 27-593): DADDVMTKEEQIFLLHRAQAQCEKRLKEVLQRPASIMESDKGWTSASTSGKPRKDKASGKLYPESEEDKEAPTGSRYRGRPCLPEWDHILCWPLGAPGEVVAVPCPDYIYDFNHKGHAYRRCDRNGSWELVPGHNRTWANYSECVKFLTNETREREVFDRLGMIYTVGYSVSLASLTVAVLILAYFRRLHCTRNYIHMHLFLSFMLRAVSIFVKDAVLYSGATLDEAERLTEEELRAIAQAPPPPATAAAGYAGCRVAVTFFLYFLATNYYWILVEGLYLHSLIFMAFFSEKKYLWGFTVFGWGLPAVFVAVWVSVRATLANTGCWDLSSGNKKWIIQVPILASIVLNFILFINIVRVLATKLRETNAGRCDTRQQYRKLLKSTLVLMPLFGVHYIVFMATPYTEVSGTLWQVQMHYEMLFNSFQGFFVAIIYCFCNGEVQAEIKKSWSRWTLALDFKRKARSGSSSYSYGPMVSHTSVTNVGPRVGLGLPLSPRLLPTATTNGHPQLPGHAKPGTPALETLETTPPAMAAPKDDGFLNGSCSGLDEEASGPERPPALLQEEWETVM
# Source text: as §1, §2
compound,measurement,setting,value
hCG,RLU,human LHCGR; Log [M] -8.00,9560 RLU and 9280 RLU
same,RLU,human LHCGR; Log [M] -8.48,9480 RLU and 9760 RLU
same,RLU,human LHCGR; Log [M] -8.95,9640 RLU and 9760 RLU
same,RLU,human LHCGR; Log [M] -9.43,9400 RLU and 8560 RLU
same,RLU,human LHCGR; Log [M] -9.91,5640 RLU and 6200 RLU
same,RLU,human LHCGR; Log [M] -10.39,1480 RLU and 1320 RLU
same,RLU,human LHCGR; Log [M] -10.86,760 RLU and 800 RLU
same,RLU,human LHCGR; Log [M] -11.34,760 RLU and 640 RLU
same,RLU,human LHCGR; Log [M] -11.82,720 RLU and 680 RLU
same,RLU,human LHCGR; Log [M] -12.29,720 RLU and 760 RLU
"CCNC(=O)[C@H]1O[C@@H](n2cnc3c(N)ncnc32)[C@H](O)[C@@H]1O [NECA, 5′-(N-Ethylcarboxamido)adenosine, reference compound]",RLU,human ADORA1 [1]; Log [M] -4.52,54613.2 RLU and 47969.8 RLU and 51710.1 RLU and 49000.1 RLU
same,RLU,human ADORA1 [1]; Log [M] -5,45093.2 RLU and 42154.9 RLU and 45163.5 RLU and 49770.8 RLU
same,RLU,human ADORA1 [1]; Log [M] -5.52,44861 RLU and 39719.3 RLU and 41641.6 RLU and 44808.6 RLU
same,RLU,human ADORA1 [1]; Log [M] -6,40028.9 RLU and 41209.2 RLU and 44508.4 RLU and 42764.7 RLU
same,RLU,human ADORA1 [1]; Log [M] -6.52,45202.8 RLU and 42879 RLU and 43685.4 RLU and 43335.2 RLU
same,RLU,human ADORA1 [1]; Log [M] -7,34782.9 RLU and 41719 RLU and 42179.9 RLU and 49034.7 RLU
same,RLU,human ADORA1 [1]; Log [M] -7.52,38391.4 RLU and 46085.4 RLU and 42431.2 RLU and 46471.3 RLU
same,RLU,human ADORA1 [1]; Log [M] -8,34384 RLU and 36270.3 RLU and 36577.6 RLU and 36064.3 RLU
same,RLU,human ADORA1 [1]; Log [M] -8.52,22996.7 RLU and 25279.3 RLU and 24270.2 RLU and 27847.4 RLU
same,RLU,human ADORA1 [1]; Log [M] -9,15401.9 RLU and 14513.8 RLU and 13368.9 RLU and 15735.7 RLU
same,RLU,human ADORA1 [1]; Log [M] -9.52,5598.44 RLU and 5306.97 RLU and 6285.59 RLU and 6308.24 RLU
same,RLU,human ADORA1 [1]; Log [M] -10,3715.22 RLU and 4002.15 RLU and 4645.49 RLU and 4239.25 RLU
same,RLU,human ADORA1 [1]; Log [M] -10.52,2896.7 RLU and 4230.19 RLU and 2168.81 RLU and 3355.8 RLU
same,RLU,human ADORA1 [1]; Log [M] -11,3218.37 RLU and 3864.72 RLU and 3165.51 RLU and 3694.07 RLU
same,RLU,human ADORA1 [1]; Log [M] -11.52,3357.3 RLU and 3231.96 RLU and 2141.63 RLU and 3882.85 RLU
same,RLU,human ADORA1 [1]; Log [M] -12,2935.97 RLU and 2547.86 RLU and 3902.48 RLU and 2470.84 RLU
same,RLU,human ADORA1 [2]; Log [M] -7,155.635 RLU and 159.8 RLU and 151.469 RLU and 140.758 RLU
same,RLU,human ADORA1 [2]; Log [M] -7.52,144.923 RLU and 169.322 RLU and 124.691 RLU and 162.181 RLU
same,RLU,human ADORA1 [2]; Log [M] -8,135.402 RLU and 150.874 RLU and 144.923 RLU and 159.205 RLU
same,RLU,human ADORA1 [2]; Log [M] -8.52,160.339 RLU and 176.195 RLU and 138.442 RLU and 190.541 RLU
same,RLU,human ADORA1 [2]; Log [M] -9,217.723 RLU and 200.357 RLU and 226.784 RLU and 215.458 RLU
same,RLU,human ADORA1 [2]; Log [M] -9.52,229.804 RLU and 201.867 RLU and 252.455 RLU and 293.228 RLU
same,RLU,human ADORA1 [2]; Log [M] -10,297.759 RLU and 328.716 RLU and 225.273 RLU and 301.534 RLU
same,RLU,human ADORA1 [2]; Log [M] -10.52,274.352 RLU and 297.759 RLU and 272.842 RLU and 312.86 RLU
same,RLU,human ADORA1 [2]; Log [M] -11,320.41 RLU and 317.39 RLU and 370.244 RLU and 303.044 RLU
same,RLU,human ADORA1 [2]; Log [M] -11.52,343.062 RLU and 282.658 RLU and 298.514 RLU and 402.711 RLU
same,RLU,human ADORA1 [2]; Log [M] -12,305.309 RLU and 268.312 RLU and 278.127 RLU and 297.759 RLU
FSH,RLU,human FSHR; Log [M] -7.00,9840 RLU and 10000 RLU
same,RLU,human FSHR; Log [M] -7.48,9640 RLU and 9560 RLU
same,RLU,human FSHR; Log [M] -7.95,9680 RLU and 9120 RLU
same,RLU,human FSHR; Log [M] -8.43,9320 RLU and 9120 RLU
same,RLU,human FSHR; Log [M] -8.91,6520 RLU and 6440 RLU
same,RLU,human FSHR; Log [M] -9.39,1160 RLU and 720 RLU
same,RLU,human FSHR; Log [M] -9.86,480 RLU and 560 RLU
same,RLU,human FSHR; Log [M] -10.34,600 RLU and 520 RLU
same,RLU,human FSHR; Log [M] -10.82,600 RLU and 720 RLU
same,RLU,human FSHR; Log [M] -11.29,640 RLU and 600 RLU
TSH,RLU,human TSHR; Log [M] -6.52,11800 RLU and 11240 RLU
same,RLU,human TSHR; Log [M] -7.00,11840 RLU and 12160 RLU
same,RLU,human TSHR; Log [M] -7.48,11440 RLU and 11640 RLU
same,RLU,human TSHR; Log [M] -7.95,11920 RLU and 12320 RLU
same,RLU,human TSHR; Log [M] -8.43,12240 RLU and 12480 RLU
same,RLU,human TSHR; Log [M] -8.91,12160 RLU and 11840 RLU
same,RLU,human TSHR; Log [M] -9.39,12040 RLU and 11800 RLU
same,RLU,human TSHR; Log [M] -9.86,9400 RLU and 9680 RLU
same,RLU,human TSHR; Log [M] -10.34,1800 RLU and 1960 RLU
same,RLU,human TSHR; Log [M] -10.82,720 RLU and 760 RLU
O=C1Nc2ccc(-c3cc(C(F)(F)F)cc(C(F)(F)F)c3)cc2C(=O)N2CCN(C(=O)COc3ccc(OC(F)(F)F)cc3I)C[C@@H]12 [compound 6641],RLU,human LHCGR; Log [M] -6.13,1160 RLU
same,RLU,human LHCGR; Log [M] -7.56,1320 RLU
same,RLU,human LHCGR; Log [M] -8.52,1160 RLU
same,RLU,human TSHR; Log [M] -6.61,1160 RLU
same,RLU,human PTHR1; Log [M] -4.70,1160 RLU
same,RLU,human PTHR1; Log [M] -8.99,1160 RLU
same,RLU,human ADORA1 [1]; Log [M] -4.52,12216.4 RLU and 11934 RLU
same,RLU,human ADORA1 [1]; Log [M] -5,11869.4 RLU
